These results are taken from publication PMC6273065, “Synthesis, Molecular Modelling and Biological Evaluation of Novel Heterodimeric, Multiple Ligands Targeting Cholinesterases and Amyloid Beta” (Molecules, 2016).

For this data set the following is noted: PAMPA-BBB, 2 h at 37 °C, means of two replicates. (The PAMPA barrier holds no transporters, so it reflects passive diffusion.)

Regarding `CC(=O)[C@H]1CC[C@H]2[C@@H]3CCC4=CC(=O)CC[C@]4(C)[C@H]3CC[C@]12C` [Progesterone, reference compound], the “Log Pe” value is “–3.8”.
